Earlier results on 1 substance are cited in patent publication US6444700B1, “Product and method to reduce stress induced immune suppression” (Abbott Laboratories, priority 1998, dated 2002).

The conditions of the data set: animal toxicity studies.

For fructooligosaccharides [FOS], the “toxicity, mutagenicity or carcinogenic effects” value is recorded as “no evidence of toxicity, mutagenicity or carcinogenic effects”.
